Assay results taken from PubChem BioAssay AID485347 (National Center for Advancing Translational Sciences (NCATS), 2010).
The list shows a part of the results, in another mix than the full data. The source made the active and inactive calls.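 The calls were made as follows: active = potentiation over 3 SD above the plate norm (cut at about 30% in these data); inactive = the rest.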

Chains of the proteins cited; added tags and fusions are not shown.
UniProt P14416, whole entry, looked up: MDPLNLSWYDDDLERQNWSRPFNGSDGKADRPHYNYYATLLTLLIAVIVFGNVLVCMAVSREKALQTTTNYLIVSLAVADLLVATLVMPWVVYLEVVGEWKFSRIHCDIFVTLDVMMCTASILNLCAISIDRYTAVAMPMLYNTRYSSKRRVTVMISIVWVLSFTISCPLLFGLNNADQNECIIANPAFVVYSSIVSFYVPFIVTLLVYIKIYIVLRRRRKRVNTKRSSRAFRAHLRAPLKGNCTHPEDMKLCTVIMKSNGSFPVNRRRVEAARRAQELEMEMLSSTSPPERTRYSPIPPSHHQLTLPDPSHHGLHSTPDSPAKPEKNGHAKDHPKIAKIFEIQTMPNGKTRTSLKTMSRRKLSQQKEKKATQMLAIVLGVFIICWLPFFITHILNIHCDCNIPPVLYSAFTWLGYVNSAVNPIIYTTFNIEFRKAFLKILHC

What follows are molecules tested against D(2) dopamine receptor (Homo sapiens) (UniProt P14416) (assay: HTS Assay for Positive Allosteric Modulators of the Human D2 Dopamine Receptor: Primary Screen for Potentiators). Details: HEK293 T-REx D2, calcium flux, EC20 dopamine potentiation; at 10 µM; stronger effect = higher value.
Description: NIH Chemical Genomics Center [NCGC] NIH Molecular Libraries Probe Centers Network [MLPCN] MLPCN Grant: NS064831-01 Assay Submitter (PI): David Sibley Dopamine receptors (DARs) are involved in the etiology and/or therapy of a number of neuropsychiatric and endocrine disorders. For instance, all receptor-based antiparkinsonian drugs work via stimulating the D2 DAR subtype whereas all FDA-approved antipsychotic agents are antagonists of this receptor. […] There are three different types of allosteric modulators that we are seeking, two of which will stimulate or augment receptor signaling, allosteric agonists and potentiators, while the third, allosteric antagonists, will attenuate receptor signaling. The present primary screening assay measures compound potentiation of an EC20 dopamine response by tracking calcium flux in a […], inducible Hek293 Trex D2 cell line.
Freshly passaged cells are plated in 1536 well black, clear bottom plates at a density of 4000 cells/well in 3 ul of complete media containing 1x tetracycline inducer. After an overnight incubation at 30 C in 5% CO2, cells are loaded with 2 ul of the no wash Calcium Assay Kit (ABD Bioquest) and incubated at room temperature for 30 to 90 minutes. A 10 cycle (1 second/cycle) baseline measurement is taken and then the FDSS online 1536 pintool delivers 23 nl of compound library (as well as dopamine controls) to the plate. The plate is measured for kinetically at 1 cycle/sec for 180 seconds and is considered to be the agonist portion of the assay (eg, compounds which activate a positive calcium response during this portion are flagged as potential agonists). Following the 180 second read, 1 ul of an EC20 of dopamine is delivered by an onboard pipette head. Measurements are taken kinetically for an additional 180 seconds.
Also: 0% is about no effect.

| Structure (SMILES) | potentiation |
| --- | --- |
| CC1CCN(C(=O)Oc2c(Cl)cc(Cl)c3cccnc23)CC1 | inactive: 6.01% |
| CC(C)=N/N=C(\N)N[N+](=O)[O-] | inactive: 22.7% |
| CN(C)C(=O)OCCc1n(C)cc[n+]1C | inactive: 5.16% |
| CCN(/C(=N/P(=O)(N1CCOCC1)N1CCOCC1)N1CCOCC1)c1ccc(OC)cc1 | inactive: 2.54% |
| Nc1ccc([As](=O)(O)c2ccc(N)cc2)cc1 | inactive: -0.455% |
| C[N+]1=C2C=CC=CC=C2SC12C([N+](=O)[O-])=CC([N+](=O)[O-])=C[C-]2[N+](=O)[O-] (centres undefined) | inactive: 2.21% |
| Cc1ccc(NP(=O)(Oc2ccccc2)Oc2ccccc2)nc1 | inactive: -4.36% |
| CCc1nc2c(n1)c1c(non1O)c1c2no[n+]1[O-] | inactive: -4.14% |
| O=[N+]([O-])c1cccc2n[nH]nc12 | inactive: 4.68% |
| CC(=O)N1C2C3N(C(C)=O)C1C1N(C(C)=O)C(C(N1C(C)=O)N3C(C)=O)N2C(C)=O | inactive: -8.98% |
| COc1ccc(C2=NCC(CBr)S2)cc1 (centres undefined) | inactive: 9.96% |
| O=C(O)CNc1ccc([As](=O)(O)O)cc1 | inactive: -2.2% |
| O=[N+]([O-])c1cccc(NC2=NCC(CBr)S2)c1 (centres undefined) | inactive: -8.15% |
| O=[N+]([O-])c1ncn(CCn2ncnc2[N+](=O)[O-])n1 | inactive: 0.329% |
| CC(C)(C)C(=O)NC(Sc1ccncn1)C(Cl)(Cl)Cl (centres undefined) | inactive: 4.3% |
| O=C(Nc1cc([As](=O)(O)O)ccc1O)c1ccccc1 | inactive: -8.65% |
| Nc1cccc2ccc([As](=O)(O)O)cc12 | inactive: 16.1% |
| CCN(N=Nc1nonc1N)c1nonc1N | inactive: 14.2% |
| O=[N+]([O-])c1cc([N+](=O)[O-])c(CCN2CCOCC2)c([N+](=O)[O-])c1 | inactive: 2.77% |
| CCOP(=O)(Nc1ccccc1)OCC | inactive: 4.93% |
| Cc1cc(SC(NC(=O)c2ccc(F)cc2)C(Cl)(Cl)Cl)ncn1 (centres undefined) | inactive: -1.93% |
| Cc1ccc(NP(=O)(Oc2ccccc2F)Oc2ccccc2F)nc1 | inactive: 0.137% |

| Structure (SMILES) | potentiation |
| --- | --- |
| O=P(Nc1nc2ccc(Cl)cc2s1)(c1ccccc1)c1ccccc1 | inactive: -1.9% |
| O=C(O)c1ccccc1[As](=O)(O)O | inactive: 15.1% |
| CC(=O)Nc1ccc([As](=O)(O)O)cc1 | inactive: 0.65% |
| Oc1ccccc1CNc1ccccn1 | inactive: 10.4% |
| Cc1c2non([O-])c-2c(C)[n+](=O)[n+]1[O-] | inactive: 11% |
| O=C(NC(Sc1ccncn1)C(Cl)(Cl)Cl)c1ccccc1 (centres undefined) | inactive: -0.203% |
| Nc1cc(N)c2nonc2c1[N+](=O)[O-] | inactive: -4.3% |
| Clc1ccc(Cl)c(NC2=NCC(CBr)S2)c1 (centres undefined) | inactive: 6.26% |
| CN1CCCC(OC(=O)C(c2ccccc2)c2ccccc2)C1 (centres undefined) | inactive: -21.4% |
| COc1ccccc1OP(=O)(Nc1ccc(C)cn1)Oc1ccccc1OC | inactive: -3.67% |
| Cc1ccc(OP(=O)(Nc2nccs2)Oc2ccc(C)cc2)cc1 | inactive: -4.57% |
| CN(C(=O)Cc1ccc(Cl)c(Cl)c1)[C@H]1CCCC[C@H]1N1CCCC1 | inactive: -6.16% |
| Cc1ccc(N/C(=N/P(=O)(N2CCOCC2)N2CCOCC2)N2CCOCC2)cc1 | inactive: 9.38% |
| NC(=O)c1cc([N+](=O)[O-])cc([N+](=O)[O-])c1N | inactive: 9.73% |
| CC(=O)Nc1ccc([As](=O)(O)O)c(O)c1 | inactive: -2.16% |
| CC(=O)Nc1ccc(Oc2c([N+](=O)[O-])cc([N+](=O)[O-])cc2[N+](=O)[O-])cc1 | inactive: 3.42% |
| C[C@@H]1C=CCP(=O)(Oc2ccccc2)O1 (some centres undefined) | inactive: 10.5% |
| C[C@H]1OP(=O)(Oc2ccccc2)C[C@@H]2O[C@@H]21 (some centres undefined) | inactive: 3.77% |
| CC(=O)c1ccc(N2CC2c2ccncc2)cc1 (centres undefined) | inactive: 14.1% |
| CC(C)(C)C(=O)NC(Sc1ccccc1)C(Cl)(Cl)Cl (centres undefined) | inactive: 1.33% |
| O=P1(Nc2nc3ccc(Cl)cc3s2)COc2ccccc2O1 (centres undefined) | inactive: -8.62% |
| CCOc1ccc(C2=NCC(CBr)S2)cc1 (centres undefined) | inactive: 5.14% |

| Structure (SMILES) | potentiation |
| --- | --- |
| Cc1ccccc1OP(=O)(Nc1ccccn1)Oc1ccccc1C | inactive: 8.9% |
| CN(C)C(=O)Oc1noc2ccccc12 | inactive: 4.48% |
| O=c1c2cc([N+](=O)[O-])ccc2[nH]c2c([N+](=O)[O-])cc([N+](=O)[O-])cc12 | inactive: -5.16% |
| O=C(OC1CN2CCC1CC2)c1ccccc1 (centres undefined) | inactive: 6.63% |
| CCC(=O)N1C2C3N(C(=O)CC)C1C1N(C(=O)CC)C(C(N1C(=O)CC)N3C(=O)CC)N2C(=O)CC | inactive: -3.41% |
| COC(=O)c1cc2c(s1)N=C(c1ccccc1)N(C)P2(=O)N1CCOCC1 (centres undefined) | inactive: -7.15% |
| Cc1ccc(OP(=O)(Nc2ccccn2)Oc2ccc(C)cc2)cc1 | inactive: 1.71% |
| CC(=O)NC(SC(=S)N(CC(C)C)CC(C)C)C(Cl)(Cl)Cl (centres undefined) | inactive: -2.89% |
| c1ccc(-c2nn[nH]n2)c(-c2nn[nH]n2)c1 | inactive: 6.4% |
| CCOC(=O)NC(Sc1ccccc1)C(Cl)(Cl)Cl (centres undefined) | inactive: -5.16% |
| Cc1ccc(NP(=O)(Oc2cccc(C)c2)Oc2cccc(C)c2)nc1 | inactive: 12% |
| O=C(NC1CCS(=O)(=O)C1)NP(=S)(Oc1ccccc1)Oc1ccccc1 (centres undefined) | inactive: 12.8% |
| O=C(OC1CN2CCC1CC2)c1cccc(Cl)c1 (centres undefined) | inactive: -5.2% |
| Nc1ccc([As](=O)(O)c2ccc([N+](=O)[O-])cc2)cc1 | inactive: -2.02% |
| C(Cc1nn[nH]n1)Cc1nn[nH]n1 | inactive: 10.8% |
| O=[N+]([O-])c1ccc(O)c(/C=N/Nc2ccc([N+](=O)[O-])cc2[N+](=O)[O-])c1 | inactive: -3.05% |
| O=[N+]([O-])c1ncn(CCn2cnc([N+](=O)[O-])n2)n1 | inactive: 5.33% |
| CC(=O)NC(SC(=S)N(C)C)C(Cl)(Cl)Cl (centres undefined) | inactive: 0.0475% |
| O=P(Nc1nc2ccccc2s1)(c1ccccc1)c1ccccc1 | inactive: -6.13% |
| O=P(Nc1ccccn1)(c1ccc(Br)cc1)c1ccc(Br)cc1 | inactive: -0.965% |
